Calls of active or inactive are those of the source. The rule behind the calls is not given here.
Biological target: T1, Retinoic acid receptor RXR-alpha (Homo sapiens) (UniProt P19793)
T1 sequence (whole entry): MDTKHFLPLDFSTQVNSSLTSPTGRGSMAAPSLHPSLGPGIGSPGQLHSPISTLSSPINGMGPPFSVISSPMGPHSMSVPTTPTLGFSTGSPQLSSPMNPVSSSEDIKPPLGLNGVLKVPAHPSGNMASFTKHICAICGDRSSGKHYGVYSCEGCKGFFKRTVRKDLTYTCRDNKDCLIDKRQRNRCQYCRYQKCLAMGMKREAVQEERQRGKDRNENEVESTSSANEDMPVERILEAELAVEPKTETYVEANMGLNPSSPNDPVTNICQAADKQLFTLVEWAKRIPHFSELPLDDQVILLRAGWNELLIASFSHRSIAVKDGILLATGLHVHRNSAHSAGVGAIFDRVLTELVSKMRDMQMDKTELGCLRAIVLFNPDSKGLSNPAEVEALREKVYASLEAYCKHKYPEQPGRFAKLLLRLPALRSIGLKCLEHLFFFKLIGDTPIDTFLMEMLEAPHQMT
Assay: Agonist activity at human full length RXRalpha transiently transfected in HEK293T cells at 30 uM incubated for 16 hrs by Gal4-hybrid reporter gene based Dual-glo luciferase assay
Assay type: cell-based
Conditions: filed as agonist

- Activity: Active
SMILES: O=C(O)c1cccc(OCc2cccc(C(F)(F)F)c2)c1

Source: ChEMBL document CHEMBL5390264, “Exploring Fatty Acid Mimetics as NR4A Ligands” (J Med Chem, 2023)
